# Measurements published in US20260217701A1, “SELECTIVE BET INHIBITORS AND USES THEREOF” (Tay Therapeutics Limited, priority 2022, published 2026).
# Values joined by “and” are separate entries in the source; they are usually repeats but may differ in a detail not shown here. Equal entries are not always repeated.
# Legend:
# [1] = test system: collagen-induced arthritis; assay: Collagen-induced arthritis (CIA) model: clinical scores and paw volume; assay type: in vivo, Lewis rats; conditions: for Animal paw volume: Group 3 (CIA + Dexamethasone), individual animals; for Average animal paw volume: group 3 CIA + Dexamethasone
# [2] = CIA study: animal body weight; conditions: Day 8; Group 3 (CIA + Dexamethasone); individual animals
compound,measurement,setting,value
"C[C@@H]1C[C@H]2[C@@H]3CCC4=CC(=O)C=C[C@]4(C)[C@@]3(F)[C@@H](O)C[C@]2(C)[C@@]1(O)C(=O)CO [Dexamethasone, dexamethasone]",Animal paw volume,"[1]; Day 6, L paw",1.26 mL
same,Animal paw volume,"[1]; Day 6, R paw",1.26 mL
same,Average animal paw volume,"[1]; Day 12, R paw",1.26 mL
same,Animal paw volume,"[1]; Day 12, L paw",1.21 mL (2×) and 1.22 mL
same,Animal paw volume,"[1]; Day 12, R paw",1.25 mL (2×) and 1.26 mL (2×) and 1.18 mL
same,Animal paw volume,"[1]; Day 13, L paw",1.23 mL and 1.24 mL and 1.25 mL
same,Animal paw volume,"[1]; Day 13, R paw",1.26 mL and 1.25 mL and 1.21 mL
same,Average animal paw volume,"[1]; Day 14, R paw",1.26 mL
same,Animal paw volume,"[1]; Day 14, L paw",1.24 mL (3×) and 1.25 mL
same,Animal paw volume,"[1]; Day 14, R paw",1.26 mL (4×) and 1.23 mL and 1.20 mL
same,Average animal paw volume,"[1]; Day 15, L paw",1.26 mL
same,Average animal paw volume,"[1]; Day 15, R paw",1.26 mL
same,Animal paw volume,"[1]; Day 15, L paw",1.23 mL and 1.21 mL and 1.26 mL and 1.16 mL
same,Animal paw volume,"[1]; Day 15, R paw",1.25 mL and 1.24 mL and 1.14 mL and 1.26 mL
same,Animal paw volume,"[1]; Day 18, L paw",1.22 mL and 1.18 mL
same,Animal paw volume,"[1]; Day 18, R paw",1.24 mL
same,Animal paw volume,"[1]; Day 19, L paw",1.22 mL and 1.19 mL
same,Animal paw volume,"[1]; Day 19, R paw",1.22 mL and 1.18 mL
same,Animal paw volume,"[1]; Day 21, L paw",1.26 mL and 1.22 mL and 1.18 mL
same,Animal paw volume,"[1]; Day 21, R paw",1.26 mL and 1.22 mL and 1.18 mL
same,Animal body weight percent change (%),[2],−11.73%
